Reference: patent publication US20210300873A1 (Clear Creek Bio, Inc., priority 2020, published 2021)
Where a name gives a salt, the structure may show the parent alone.

Assay: Stability of the polymorphic form under vacuum drying
Format: physicochemical
Settings: vacuum drying condition of 50° C. for 18 h

Change of polymorphic form on drying (in words): remains the same
Compound: Cc1c(-c2ccc(-c3ccccc3F)cc2)nc2ccc(F)cc2c1C(=O)O [Pattern C, 6-Flouro-2-(2′-fluoro-1,1′-biphenyl-4-yl)-3-methyl-4-quinolinecarboxylic acid sodium salt]
